Target: SKAP-HOM (EST clone IMAGE 3893964), in vitro translated, biotin-labelled (UniProt O75563)

Protein sequences, listed by entry. Tags and fused reporters are not part of them.
UniProt O75563, whole entry: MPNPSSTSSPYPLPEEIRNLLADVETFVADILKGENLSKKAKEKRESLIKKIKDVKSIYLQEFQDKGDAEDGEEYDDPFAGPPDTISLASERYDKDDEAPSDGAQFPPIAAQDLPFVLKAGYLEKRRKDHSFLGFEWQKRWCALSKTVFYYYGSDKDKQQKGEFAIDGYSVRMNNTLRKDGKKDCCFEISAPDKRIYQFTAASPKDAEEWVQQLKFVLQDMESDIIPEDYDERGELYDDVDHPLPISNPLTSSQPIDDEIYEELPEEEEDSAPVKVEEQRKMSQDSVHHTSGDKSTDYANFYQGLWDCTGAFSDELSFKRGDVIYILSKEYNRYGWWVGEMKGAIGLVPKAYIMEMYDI

**Q.** SRC (known kinase, 0.1 mU SRC/µl) was tested. Which ECL signal with Sulfo-TAG anti-phosphotyrosine after SAP treatment and SRC reaction (+SRC, +SAP) did it give?
**A.** 32000 ECL signal
